Test results as given in ChEMBL document CHEMBL3414490 (Eur J Med Chem, 2015).

Target: Prothrombin (Homo sapiens, UniProt P00734)
Test: Inhibition of human thrombin using Ac-FVR-AMC as substrate incubated for 10 mins prior to substrate addition measured for 10 min by fluorescence assay

IC50: 9.46 nM
Structure (SMILES): CC1CNc2c(cccc2S(=O)(=O)N[C@@H](CCCNC(=N)N)C(=O)N2CC[C@@H](C)C[C@@H]2C(=O)O)C1 (stereo partly specified) [ARGATROBAN]
